PMC4963535, “Structure-guided development of heterodimer-selective GPCR ligands” (Nature Communications, 2016)

The chains behind the UniProt entries cited, without tags or fusion partners. Residues count along the entry.
UniProt P14416, whole entry: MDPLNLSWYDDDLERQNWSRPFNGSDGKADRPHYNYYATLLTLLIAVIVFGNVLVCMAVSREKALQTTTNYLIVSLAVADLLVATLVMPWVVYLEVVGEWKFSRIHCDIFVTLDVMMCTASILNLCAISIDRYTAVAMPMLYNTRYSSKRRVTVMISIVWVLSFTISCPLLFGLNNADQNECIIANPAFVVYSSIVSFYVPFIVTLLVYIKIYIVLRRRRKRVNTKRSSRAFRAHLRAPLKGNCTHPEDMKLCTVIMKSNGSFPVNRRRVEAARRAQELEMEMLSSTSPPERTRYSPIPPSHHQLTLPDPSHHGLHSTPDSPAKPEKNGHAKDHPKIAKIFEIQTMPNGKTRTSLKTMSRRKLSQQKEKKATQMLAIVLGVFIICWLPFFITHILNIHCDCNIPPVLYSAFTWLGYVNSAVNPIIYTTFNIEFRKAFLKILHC
UniProt P14416, 1-414 isoform P14416-2: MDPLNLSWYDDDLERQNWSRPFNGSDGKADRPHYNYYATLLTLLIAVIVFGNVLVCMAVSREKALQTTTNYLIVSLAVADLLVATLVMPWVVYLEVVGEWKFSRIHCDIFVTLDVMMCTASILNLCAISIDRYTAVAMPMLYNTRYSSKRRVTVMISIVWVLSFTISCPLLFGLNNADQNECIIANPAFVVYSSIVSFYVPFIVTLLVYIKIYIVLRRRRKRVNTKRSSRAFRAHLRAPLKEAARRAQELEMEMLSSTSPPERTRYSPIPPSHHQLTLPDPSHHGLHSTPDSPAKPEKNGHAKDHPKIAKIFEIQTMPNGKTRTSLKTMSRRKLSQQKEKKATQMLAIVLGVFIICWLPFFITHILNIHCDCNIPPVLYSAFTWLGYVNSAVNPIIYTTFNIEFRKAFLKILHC
UniProt P30989, whole entry: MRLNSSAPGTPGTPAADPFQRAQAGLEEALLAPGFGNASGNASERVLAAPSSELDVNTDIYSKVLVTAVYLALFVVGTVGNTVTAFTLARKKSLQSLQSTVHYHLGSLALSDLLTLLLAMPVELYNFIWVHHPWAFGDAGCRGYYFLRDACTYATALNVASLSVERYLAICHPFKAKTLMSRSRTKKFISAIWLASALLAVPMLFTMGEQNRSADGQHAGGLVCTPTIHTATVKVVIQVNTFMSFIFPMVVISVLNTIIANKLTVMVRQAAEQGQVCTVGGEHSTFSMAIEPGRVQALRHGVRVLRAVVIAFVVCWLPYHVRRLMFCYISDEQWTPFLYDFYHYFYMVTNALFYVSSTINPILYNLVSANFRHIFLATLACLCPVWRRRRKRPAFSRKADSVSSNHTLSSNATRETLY

Experiments:
hD2LR = biological target: T1, hD2LR (Homo sapiens, UniProt P14416); assay: [3H]spiperone displacement, membranes from CHO cells stably expressing hD2LR; type: binding
T1 construct: expressed in transfected cells

human D2LR = biological target: T2, human D2LR (Homo sapiens, UniProt P14416); assay: [3H]spiperone displacement, membranes from HEK 293 T cells transiently transfected with D2LR; type: binding; settings: D2LR monoexpression; mean ± s.e.m.
T2 construct: host or cells: HEK 293 T

hD2SR = biological target: T3, hD2SR (Homo sapiens, UniProt P14416); assay: [3H]spiperone displacement, membranes from CHO cells stably expressing hD2SR; type: binding
T3 construct: expressed in transfected cells

NTS1R = NTS1R (Homo sapiens, UniProt P30989); assay: cAMP BRET assay (CAMYEL biosensor), HEK 293 T cells expressing NTS1R; type: cell-based; design: expressed in transfected cells; host or cells: HEK 293 T
PAR2/NTS1R = biological target: T4, PAR2/NTS1R (Homo sapiens, UniProt P30989); assay: β-arrestin-2 recruitment (DiscoveRx PathHunter), ProLink-tagged PAR2 coexpressed with NTS1R; type: cell-based
T4 construct: host or cells: HEK 293 stably expressing EA-tagged β-arrestin-2

D2SR = biological target: T5, D2SR (Homo sapiens, UniProt P14416); assay: cAMP BRET assay (CAMYEL biosensor), HEK 293 T cells expressing D2SR; type: cell-based; settings: 10 μM forskolin
T5 construct: expressed in transfected cells; host or cells: HEK 293 T

D2LR/NTS1R = D2LR/NTS1R (Homo sapiens, UniProt P14416+P30989); assay: [3H]spiperone displacement, membranes from HEK 293 T cells coexpressing D2LR and NTS1R; settings: Ki (monophasic competition curves), coexpressed D2LR/NTS1R, D2LR:NTS1R 1:2; mean ± s.e.m.

| Structure (SMILES) | Ki (hD2LR) | Ki (human D2LR) | Ki (hD2SR) | further results |
| --- | --- | --- | --- | --- |
| CC[C@H](C)[C@H](NC(=O)CN(CCc1ccc(O)cc1)C(=O)[C@@H]1CCCN1C(=O)[C@H](CCCNC(=N)N)NC(=O)[C@H](CCCNC(=N)N)NC(=O)CCOCCOCCOCCOCCOCCOCCNC(=O)CCOCCOCCOCCOCCOCCOCCNC(=O)c1ccc(-c2ccc(-n3cc(CCCCN4CCN(c5ccccc5OC)CC4)nn3)cc2)cc1)C(=O)N[C@@H](CC(C)C)C(=O)O [2f] | 160 ± 100 nM | 40 ± 6 nM | 90 ± 57 nM | – |
| CCCN1CCC[C@@H]2Cc3n[nH]cc3C[C@H]21 [quinpirole, reference compound] | – | – | – | cAMP response, cells expressing NTS1R only, absence of FSK (in words) (NTS1R): do not elicit any response; β-arrestin-2 recruitment, PAR2/NTS1R (in words) (PAR2/NTS1R): entirely inactive |
| CC[C@H](C)[C@H](NC(=O)[C@H](Cc1ccc(O)cc1)NC(=O)[C@@H]1CCCN1C(=O)[C@H](CCCNC(=N)N)NC(=O)[C@@H](N)CCCNC(=N)N)C(=O)N[C@@H](CC(C)C)C(=O)O [NT(8-13), reference compound] | – | – | – | effect on forskolin-induced cAMP accumulation, cells expressing D2R only (in words) (D2SR): remained without significant effects |
| CC[C@H](C)[C@H](NC(=O)CN(CCc1ccc(O)cc1)C(=O)[C@@H]1CCCN1C(=O)[C@H](CCCNC(=N)N)NC(=O)[C@H](CCCNC(=N)N)NC(=O)CCOCCOCCOCCOCCOCCOCCNC(=O)c1ccc(-c2ccc(-n3cc(CCCCN4CCN(c5ccccc5OC)CC4)nn3)cc2)cc1)C(=O)N[C@@H](CC(C)C)C(=O)O [2e] | 56 ± 13 nM | 23 ± 5 nM | 23 ± 2 nM | – |
| CCCN(CCCCc1cn(-c2ccc(-c3ccc(C(=O)NCCOC)cc3)cc2)nn1)C1Cc2ccccc2C1 [3g] | – | – | – | Ki (D2LR/NTS1R): 42 ± 12 nM |
